Test system: 4T1 subcutaneous tumor
Test: tumor growth, 4T1 mouse subcutaneous tumor model
Format: in vivo, BALB/c mice
Conditions: 100 μL of 500 μM, tail vein, 4 consecutive days
Description: 10^6 4T1 cells were implanted subcutaneously into the backs of adult female BALB/c mice at the age of six weeks to construct a mouse subcutaneous tumor model. When the volume of tumor reached 50-60 mm^3, the mice were divided into 4 groups, five mice in each group, and 100 μL of PBS and HSA, Ir-cR8 and Ir-cR8-HSA nanoparticles (500 μM) were injected into tail veins for 4 consecutive days, separately. The tumor growth of each mouse was observed.

HSA: human serum albumin, carrier protein injected alone as a control group
tumor inhibitory effect: cannot effectively inhibit the tumor growth
